Assay results published in ChEMBL document CHEMBL3638802, “Preparation and uses of 1,2,4-triazolo [1,5a] pyridine derivatives” (2013).

By UniProt entry, the sequences of proteins in these tests, tags left out.
UniProt Q05397, whole entry: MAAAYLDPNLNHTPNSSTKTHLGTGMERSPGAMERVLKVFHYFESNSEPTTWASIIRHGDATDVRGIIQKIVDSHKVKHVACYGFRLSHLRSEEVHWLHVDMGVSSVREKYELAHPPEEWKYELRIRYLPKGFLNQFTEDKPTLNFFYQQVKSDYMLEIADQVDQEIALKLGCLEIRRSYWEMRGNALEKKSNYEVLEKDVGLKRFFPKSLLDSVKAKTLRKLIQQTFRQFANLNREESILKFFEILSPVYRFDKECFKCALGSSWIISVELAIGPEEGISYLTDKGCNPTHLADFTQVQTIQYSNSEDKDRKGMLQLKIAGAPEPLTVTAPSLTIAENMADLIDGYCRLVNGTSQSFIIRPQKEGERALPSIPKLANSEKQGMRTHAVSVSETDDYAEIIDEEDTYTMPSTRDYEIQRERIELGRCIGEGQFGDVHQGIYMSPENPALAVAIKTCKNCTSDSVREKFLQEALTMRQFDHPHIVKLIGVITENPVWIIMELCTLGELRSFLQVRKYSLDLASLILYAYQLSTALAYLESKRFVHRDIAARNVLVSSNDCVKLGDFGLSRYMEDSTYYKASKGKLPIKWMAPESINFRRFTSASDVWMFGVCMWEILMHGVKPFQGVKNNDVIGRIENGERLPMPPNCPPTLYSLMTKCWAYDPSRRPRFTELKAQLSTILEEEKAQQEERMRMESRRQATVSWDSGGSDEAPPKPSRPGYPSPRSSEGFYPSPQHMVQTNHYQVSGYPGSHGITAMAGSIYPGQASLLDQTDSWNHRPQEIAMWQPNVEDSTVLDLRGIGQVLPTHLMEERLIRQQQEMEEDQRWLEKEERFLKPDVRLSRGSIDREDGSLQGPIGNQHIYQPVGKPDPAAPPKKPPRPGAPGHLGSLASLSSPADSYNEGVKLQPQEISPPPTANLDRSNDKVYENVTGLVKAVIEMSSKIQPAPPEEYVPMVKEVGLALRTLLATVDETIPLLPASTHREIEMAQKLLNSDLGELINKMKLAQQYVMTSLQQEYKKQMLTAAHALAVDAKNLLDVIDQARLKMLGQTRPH

Target: Focal adhesion kinase 1 (Homo sapiens, UniProt Q05397)

`Oc1cccn2nc(Nc3ccc(C(F)(F)F)cc3)nc12` was tested, and the IC50 was ≥ 10 µM.
